## Antibody variant affinities, Ab-14 heavy chain, assay B

Target peptide (SARS-CoV-2 spike, HR2 region): PDVDLGDISGINAS

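Designed CDR sequences, proposed from the first random library and measured here. Several design methods are mixed in this list. Affinity was read by AlphaSeq, a pooled yeast mating assay with surface-displayed partners. Binding brings cells together so that they mate, and sequencing counts the barcode pairs among the diploids. Scores were corrected for input abundance and mapped to Kd with protein pairs of known affinity run in the same pool. Each pool was mated in six replicate cultures.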

Parent scFv Ab-14: VH joined to VL by a (GGGGS)3 linker. Changes lie in the heavy chain CDRs alone.
VH: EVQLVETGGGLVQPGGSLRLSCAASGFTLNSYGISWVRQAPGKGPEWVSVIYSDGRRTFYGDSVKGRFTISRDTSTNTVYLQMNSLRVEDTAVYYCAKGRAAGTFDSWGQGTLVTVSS
VL: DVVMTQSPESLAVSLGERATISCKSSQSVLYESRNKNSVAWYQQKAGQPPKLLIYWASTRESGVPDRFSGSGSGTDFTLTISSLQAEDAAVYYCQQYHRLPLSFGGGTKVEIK

The parent's heavy chain CDRs are GFTLNSYGIS, VIYSDGRRTFYGDSVK, GRAAGTFDS; each variant's own CDRs replace them letter for letter.
Each Kd is an estimate from the mating assay, the geometric mean of the replicates in which the pair was seen; lower is stronger.
"no signal" marks a missing value. The strain was present, yet no cells mated with the target were sequenced in any replicate, which points to weak or no binding.
The list is sorted by this average, lowest first, undetected variants last.

CDR-H1	CDR-H2	CDR-H3	Kd	seen in
GFDLNEYGIS	VIYADGKRTVYADSVK	GNVAGTFDV	130 pM	6/6
GFDLNEYGIS	VIYADGRRTQYIDSVK	GNQAGTFDL	180 pM	6/6
GFDLDEYGIS	VIYADGMRTVYADSVK	GQNAGTFDI	200 pM	6/6
GFDLNSYGIS	VIYSDGRRTFYSDSVK	GWTAGTFDS	280 pM	6/6
GFDLNEYGIS	VIYADGRRTFYANSVK	GEAAGTFDS	300 pM	6/6
GFDLNEYGIS	VIYADGRRTAYKDSVK	GTNAGTFDQ	300 pM	6/6
GFDLDEYGIS	VIYADGMRTFYADSVK	GNIAGTFDS	350 pM	6/6
GFDLNEYGIS	VIYADGMRTAYAESVK	GEVAGTFDV	380 pM	6/6
GFDLNEYGIS	VIYADGKRTAYQDSVK	GNVAGTFDV	380 pM	6/6
GFDLDEYGIS	VIYADGMRTAYADSVK	GENAGTFDQ	400 pM	6/6
GFSIDEYGIS	VIYADGLRQFYTNAVK	GMAAGTFDQ	440 pM	6/6
GFDLNEYGIS	VIYADGRRTFYVDSVK	GVNAGTFDM	450 pM	6/6
GFDLDEYGIS	VIYADGMRTFYADSVK	GNTAGTFDI	500 pM	6/6
GFDLNEYGIS	VIYADGMRTFYTDSVK	GQLAGTFDV	540 pM	6/6
GFDLNEYGIS	VIYADGMRTFYIDSVK	GEIAGTFDV	550 pM	6/6
GFDLDEYGIS	VIYADGVRTAYADDVK	GNVAGTFDT	840 pM	6/6
GQDLEHYGIS	VIYADGKRSGYSNAVK	GQQAGTFNT	970 pM	6/6
GFSLNSYGIS	VIYSDGRRTFYSDDVK	GQAAGTFDS	1.3 nM	6/6
GFDLNEYGIS	VIYADGMRTVYTDSVK	GNVAGTFDI	1.4 nM	6/6
GFSLNSYGIS	VIYADGRRTFYGDNVK	GRAAGTFDS	1.7 nM	6/6
GFSLNSYGIS	VIYADGRRTFYADSVK	GEAAGTFDS	1.9 nM	6/6
GFTLNEYGIS	VIYSDGRRTFYADSVK	GRFAGTFDS	2.5 nM	6/6
GFELNDYGIS	VIYSDGRRTFYKDSVK	GRAAGTFDS	2.6 nM	6/6
GFDLNEYGIS	VIYADGSRTVYADSVK	GEVAGTFDQ	3.1 nM	6/6
GFDLNEYGIS	VIYADGRRTFYSNSVK	GEAAGTFDV	3.2 nM	6/6
GFTLNEYGIS	VIYSDGRRTFYTDSVK	GRHAGTFDS	5.3 nM	6/6
GFDLNSYGIS	VIYSDGRRTFYQDQVK	GEAAGTFDS	5.7 nM	6/6
GFTLNEYGIS	VIYSDGRRTFYSDSVK	GKAAGTFDS	6.5 nM	6/6
GFDLNEYGIS	VIYADGKRTFYTDNVK	GQNAGTFDS	9.4 nM	4/6
GFSLNSYGIS	VIYSDGRRTFYGDMVK	GKTAGTFDS	81 nM	5/6
GFDLNEYGIS	VIYADGMRTAYIDSVK	GENAGTFDQ	98 nM	1/6
GFTMNDYGIN	VIYSDGRRTQYIDSVK	GRAAGTFDS	290 nM	1/6
GFTRNDYGIS	VIYSDGRRTFYGDSVK	GRAAGTFDS	32 µM	3/6
GMSLDEYGIS	VIYADGKRCAYANTVK	GELAGFFML	no signal	0/6
GFSLNEYGIS	VIYSDGRRTFYGDSVK	GRAALTFDS	no signal	0/6
GFSLDEYGIS	VIYADGLRKQYSNKVK	GLEGFFFDQ	no signal	0/6
GFTLNSYGIA	VIYSDGRRTFYSDSVK	GRAAGTFDS	no signal	0/6
DFTLNQYGIS	VIYSQGDRTFYSDSVK	GRAAGFFDS	no signal	0/6
GFQLNSYGIS	VIYSDGRRTFYQDSVK	GTLCGTFDS	no signal	0/6
GFTLDDYGIS	VPYSDGRRTFYGDSVK	GRAAGTALL	no signal	0/6
GFTLNSYGIS	VIYADGRRAAYGDSVA	CRAAGTFDS	no signal	0/6
IFTLNSYGIS	VIYSDGERTFYDPSVK	GQFAGTFDS	no signal	0/6
GFTLNHYGIS	VIYSCGRRTFYDDLVK	GELARTFDS	no signal	0/6
GFTLNEYGIS	VIYSDGRRTFYGDSCK	GRAAVTFDM	no signal	0/6
GFTLNSYGIS	VIYADGRRTFYGDSVK	WRAAGTFDS	no signal	0/6
GFTLNSYGIS	VIYSDGRRQFYGDSVK	GWAAGTSDS	no signal	0/6
GFDIMEYGIS	VIYADGMRKAYENNVK	GGEVRSVVI	no signal	0/6
GFTLDDYGIS	VIYSDGRRTFYGDSVK	GRAAGTGDS	no signal	0/6
GFDLDEYGIS	VIYADGSRQVYQDNVK	GVGFGTFTD	no signal	0/6
GFQLDEYGIS	VIYADGLRQEYAQKVK	GYNSFDLNQ	no signal	0/6

7 of these entries, quoted again:

CDR-H1	CDR-H2	CDR-H3	Kd	seen in
GFSIDEYGIS	VIYADGLRQFYTNAVK	GMAAGTFDQ	440 pM	6/6
GFDLNEYGIS	VIYADGMRTAYIDSVK	GENAGTFDQ	98 nM	1/6
GFTLNSYGIS	VIYADGRRAAYGDSVA	CRAAGTFDS	no signal	0/6
GFDLNEYGIS	VIYADGRRTQYIDSVK	GNQAGTFDL	180 pM	6/6
GFSLDEYGIS	VIYADGLRKQYSNKVK	GLEGFFFDQ	no signal	0/6
GFDLDEYGIS	VIYADGMRTVYADSVK	GQNAGTFDI	200 pM	6/6
GFTMNDYGIN	VIYSDGRRTQYIDSVK	GRAAGTFDS	290 nM	1/6

A sequence measured in both rounds can read differently, since the two assays cover different ranges.
Background: pairings of all heavy chain designs with three empty control strains gave a value in 1% of cases (median 120 nM, 5th percentile 7.0 nM). Values in that range, when seen in few replicates, are hard to tell from nonspecific mating.
The parent sequence was in this pool as ten entries: three were never detected, three once, and four in most replicates, with averages from 2.2 nM to 240 nM.
In the paper, a design with two or fewer of six values counts as a poor binder.

Values reported by Li et al. 2023, doi:10.1038/s41467-023-39022-2 (FLAb copy).